Consider 4 compounds from doi:10.1101/2024.10.14.618151v1 (bioRxiv, 2024).

Assay [1] relates to peritoneal leukocyte populations. The experiment in a line: Zymosan-induced peritonitis, flow cytometry of peritoneal lavage. Type of assay: in vivo, mouse (C57Bl/6 J). The settings on record: IP with zymosan and again at 24 h, read at 48 h, three doses, n=5. (In general: In flow cytometry, cells or beads pass a laser one at a time.)
In assay [2] the test system is PBL migration across TNF-α/IFN-γ-stimulated endothelial cells (HDBEC). The settings on record: for IC50: 24 h.

By IC50 is commonly meant the point on the concentration scale where inhibition reaches its midpoint. Lower therefore signals inhibition by little substance.

Regarding `CC(=O)N[C@@H](CCC(N)=O)C(=O)NCC(=O)N[C@@H](C)C(=O)O` [Ac-QGA-acid], in assay [1], the “total peritoneal F4/80high macrophage counts” value is “no effect”, the “total peritoneal Ly6G+ neutrophil counts” value is “to a lesser extent” and the “total peritoneal leukocyte counts (CD45+)” value is reported as “only showed effects at the highest dose”. Also, in assay [2], the “% inhibition of Lymphocyte trafficking (0.3nM)” value was found to be 38% and half-maximal inhibition (IC50) was put at 42 pM.
On to `CC(C)[C@H](NC(=O)[C@@H](N)CO)C(=O)N[C@H](C(N)=O)[C@@H](C)O` [SVT-NH2], for which the half-maximal inhibitory concentration (IC50) in assay [2] is 10 pM.
With `CC(C)[C@H](NC(=O)[C@@H](N)CO)C(=O)N[C@H](C(=O)O)[C@@H](C)O` [SVT-acid], in assay [2], the IC50 was 46 pM.
Still for that read-out and setting: to `CCNC(=O)[C@@H](NC(=O)[C@@H](NC(=O)[C@@H](N)CO)C(C)C)[C@@H](C)O` [SVT-NH-ethyl] belongs 17 pM.
